# Binding of CDR-mutated scFvs to a peptide of the spike HR2 region

Values reported by Li et al. 2023, doi:10.1038/s41467-023-39022-2 (FLAb copy).

Target peptide (SARS-CoV-2 spike, HR2 region): PDVDLGDISGINAS

Parent scFv Ab-14: VH joined to VL by a (GGGGS)3 linker. Changes lie in the light chain CDRs alone.
VH: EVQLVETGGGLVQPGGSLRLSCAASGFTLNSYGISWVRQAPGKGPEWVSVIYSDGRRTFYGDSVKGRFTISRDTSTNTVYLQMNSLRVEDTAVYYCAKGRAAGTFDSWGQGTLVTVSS
VL: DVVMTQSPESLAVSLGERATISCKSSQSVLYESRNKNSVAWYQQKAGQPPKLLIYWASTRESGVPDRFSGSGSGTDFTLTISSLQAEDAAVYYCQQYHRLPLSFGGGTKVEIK

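The parent was found by panning a naive human phage display library on the peptide. These sequences belong to a second round, designed from the earlier measurements on random variants of the parent. Several design methods are mixed in this list. The scFvs were displayed on barcoded MATa yeast, the peptide on MATalpha yeast. Binding brings cells together so that they mate, and sequencing counts the barcode pairs among the diploids. The ratio of observed to expected reads was calibrated, replicate by replicate, on BCL2-family standards whose Kd was known from biolayer interferometry. There are six technical replicates.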

Each variant is given by its three light chain CDRs, as the data file delimits them; those of the parent are KSSQSVLYESRNKNSVA, WASTRES, QQYHRLPLS.
Numbers give log10(Kd / nM), so 0 is 1 nM and 3 is 1 µM. Smaller is tighter.
Averages over replicates are reported, and they cover detected replicates only.
"no signal" means that the variant was in the library but no mating with the target was seen in any replicate; the authors take this as a sign of poor binding, and no number exists.
A sequence measured in both rounds can read differently, since the two assays cover different ranges.
The authors' rule: three or more of the six replicates give a measured affinity, fewer mean a poor binder.
Three control strains display no target. For all light chain designs, 4% of the pairings with them gave a signal, with a median of 2.64 and one signal in twenty below 1.59, so weak values seen in few replicates may be background. The control count says in how many pairings with the empty strains this scFv gave a signal.

CDR-L1	CDR-L2	CDR-L3	mean log10 Kd (nM)	replicates with signal	control signals
KLSQSFLYESRNKNSVA	GASTRES	QQYHRLPLS	-0.20	6 of 6	1 of 18
YIAENSDNLYQNTSSVA	ETNQVRQ	QQYHLLPLA	no signal	0 of 6	0 of 18
HLSQSYLYESRNKNSVA	NASTRES	QQYHRLPLS	0.01	6 of 6	2 of 18
MVSQLMLWGMHVKNSIA	EAVTRLN	QQYDRLPLI	no signal	0 of 6	0 of 18
NMEGVEGEIAQHGNSVA	GVDLREA	QQYARLPLH	0.81	6 of 6	2 of 18
KLQQSWMQQWRNKNSVA	NASTRLS	QQYHRLPLS	0.21	6 of 6	2 of 18
KSSQSVLYESNNKNSVA	WASTRES	QQTHRLPLF	no signal	0 of 6	1 of 18
KLQQSELYESRNKNSVA	SASTRLS	QQYHRLPLS	0.54	6 of 6	1 of 18
KSSQSVLYESRLKNSVA	WATTRES	QQYHRLPLF	no signal	0 of 6	0 of 18
KYSQSVLYESRNKNNVA	DASTRES	QQYHRLPLS	-0.43	6 of 6	0 of 18
KSGQGVLYEYRNKNSGA	GASTRES	QQYHRLPLS	no signal	0 of 6	0 of 18
KIYQVGLGSQKIMRNIA	ETSTRCT	QSYQRLPLS	1.04	6 of 6	1 of 18
KISSLTMYESVNKNNIA	EMTTRPS	QSYHRLPLS	0.28	6 of 6	0 of 18
KSGQGVLYESRAKNSVA	GASTRES	QQYHRLPLS	0.28	6 of 6	2 of 18
MFSQSVMYGSFMRNSVA	QTSTRES	QQYDRLPLS	1.82	5 of 6	0 of 18
QLDWYNTTATASASNVA	DVAQRAN	QQYMRLPLM	-0.14	6 of 6	1 of 18
HLSAMWGLESVKHNNVA	ENNTRED	QQYDRLPLS	1.59	6 of 6	0 of 18
TISGLTMMPSRAHNSVA	NTSTRYQ	QQYHRLPLS	0.42	6 of 6	0 of 18
KISQSILFMTGNKNAIA	QMEMREE	QQYHRLPLS	0.51	6 of 6	0 of 18
KISQSVNVGSKAKNSLA	EMSTREF	QDYHRLPLS	0.55	6 of 6	1 of 18
KISMLQRYESQSKNSIA	EMSRREN	QQYHRLPLS	-0.23	6 of 6	0 of 18
TLGQFTMQLSVNKNSVA	DANTSGD	QQYDRLPLS	1.10	6 of 6	1 of 18
KDSQSVLYESLNKNSVA	WASTRES	QQYHRLPLS	1.48	2 of 6	0 of 18
KSSISMLEESRNKNSVA	EASTRES	QQYHRLPLS	0.10	6 of 6	0 of 18
KISQGVLYESRNKNSVA	GASTRCS	QQYHRLPLS	-0.10	6 of 6	0 of 18
KLSQSVGYQSRNKWSVA	NASTRES	QQYHRLPLS	0.00	6 of 6	0 of 18
KSSQSVLRESRNKNSVA	WASTRES	QQYHRLPLS	4.22	1 of 6	2 of 18
KVFPSGGGLSRNKNSVA	DASTRES	QQYHRLPLS	0.31	6 of 6	0 of 18
MIEQGENEQEEHKNAIA	SGHERPR	QQYYKLPLV	0.59	6 of 6	1 of 18
KLMMFMQEIGIMKNNIA	NLEMGAR	QQYAQLPLV	no signal	0 of 6	0 of 18
KQSMSVLYEERNKNSVA	WAKTRES	QQYHRLPLS	no signal	0 of 6	1 of 18
KLQQSVLYESRNKNSVA	SASTRCS	QQYHRLPLS	-0.13	6 of 6	0 of 18
RSSQGVLKESRNKNSVA	WASTRES	QQYHRLPLS	1.08	6 of 6	1 of 18
KSSQSVWGESRNKNSVA	WASTRES	QQGHSPPLS	2.95	5 of 6	2 of 18
KSEQSVLYESRNKHSVA	AASTREV	QQYHRLPLS	0.78	6 of 6	1 of 18
KSSQSVLYESRNKNSVA	WASTREV	QQYHRLVLS	0.55	6 of 6	0 of 18
KSSQSVLYESRNKNSVA	DASTRES	QQYHRLPLK	0.44	6 of 6	2 of 18
KSSQSLLYEMDNKNSVA	WASTRES	QQYHRLPLS	2.46	4 of 6	0 of 18
KSSISYLYESRNKNSVA	NGSTRES	QQYHRLPLS	-0.06	6 of 6	1 of 18
KLSQSVPYESRMKNSVA	NASQRES	QQYHRLPLS	0.32	6 of 6	1 of 18
KLSQSMLYESRNKNSVA	NASTREW	QQYHRLPLS	-0.11	6 of 6	0 of 18
KLEQSQDYESRNKNSVA	NASTRES	QQYHRLPLS	-0.38	6 of 6	0 of 18
KASQSVLYESRNKNSVA	GGSTRES	QQYHKLPLS	0.31	6 of 6	1 of 18
KISQMIRVGSTHSNSIA	EEAKRAD	QQYHRLPLA	2.02	4 of 6	0 of 18
KLYQSMGYLSHNKASIA	DMSRREN	QQYHRLPLS	0.45	6 of 6	1 of 18
KLSDVTEYESRNKNNVA	DLTTRGS	QDYHRLPLS	-0.64	6 of 6	0 of 18
KVDQEWHYGSRNKNSVA	NASQRES	QQYHRLPLS	0.56	6 of 6	3 of 18
KVQQSQLYESRNKNSVA	NASTRED	QQYHRLPLS	-0.46	6 of 6	1 of 18
KISYLQNQTFEQSNNVA	EMVTRAK	QQYNRLPLS	0.40	6 of 6	0 of 18
KLMQSVLYEDRNKNSVA	NASQRES	QQYHRLPLS	0.20	6 of 6	0 of 18
KLHQSWLYGSRNANSVA	NASQREE	QQYHRLPLS	-0.44	6 of 6	2 of 18
HISMVMNYLSRNKNSIA	EESTRED	QQYHRLPLS	0.44	6 of 6	1 of 18
KLSQSVLYESRQKNSVA	NASTRCS	QQYHRLPLS	-0.44	6 of 6	0 of 18
KMAQGWMYESRNKNSVA	NASYREM	QQYHRLPLS	-0.25	6 of 6	0 of 18
KIYYHGVDYLNEQNSIA	GQDIRQF	QQYYRLPLV	0.56	6 of 6	0 of 18
KLQQSDLYESRNKNSVA	NASTRES	QQYHRLPLS	-0.38	6 of 6	1 of 18
SLTVSDNYGSQLENNIA	QGVCKCE	QQYIRLPLI	1.57	4 of 6	0 of 18
DVTVVDNGASKIQNSIA	SGVEKCD	QQYSRLPLA	0.04	6 of 6	2 of 18
KISGMYNKESKNKNSVA	EMVNRES	QQYDRLPLS	1.44	6 of 6	0 of 18
FLEQSSLYESRNKNSVA	NASTRCS	QQYHRLPLS	-0.03	6 of 6	1 of 18
KIQQSVLYESRNKNAVA	WASTRES	QQYHRLPLS	0.29	6 of 6	0 of 18
RLGMNFTWPGNARQNVA	EIQKAID	QQYAHLPLS	1.51	6 of 6	0 of 18
KLVQPDDNDNQDMRNVA	DENTLGQ	QQYNRLPLG	0.98	6 of 6	3 of 18
KMSQSNPYESRNWNSVA	NASKRES	QQYHRLPLS	0.45	6 of 6	0 of 18
KSSQSCLYEYRNKNSVA	WASTRES	GQYHRLPLS	no signal	0 of 6	0 of 18
KLGAATRFESGNKASIA	NNSTREE	QQYHRLPLS	0.76	6 of 6	1 of 18
KSSISYLYESGNKNSVA	DASTRES	QQYHRLPLS	0.62	6 of 6	0 of 18
QLQFEDVQYGVNEQAIA	EENQRMQ	QHYFRLPLS	0.15	6 of 6	2 of 18
HITYGMMVVGRHSKSIA	QAETRAK	QQYDRLPLI	1.53	6 of 6	0 of 18
KSSQGVLYESRNKNSVA	GASQRES	QQYHRLPLS	0.24	6 of 6	2 of 18
MISQSFLIGMKAKNSVA	QTSTREE	QQYDRLPLA	0.86	6 of 6	1 of 18
QLSQVTHSESRNKNSIA	EMVTREV	QQYDRLPLS	1.30	6 of 6	0 of 18
KLQMSNWYESRMHNSVA	DASVRES	QQYHRLPLS	-0.42	6 of 6	1 of 18
KLFDETSSEQVNARAVA	DSLAVHE	QQYHMLPLS	2.12	1 of 6	0 of 18
QFESHLAPIGNIQHSIA	DTSCAEP	QSYFRLPLS	1.35	4 of 6	0 of 18
HIQDDIGGAKEQFDNVA	STEERSY	QQYYRLPLS	0.60	6 of 6	0 of 18
MMLSHSLEVQNINNAVA	EASMVYD	QQYGSLPLS	2.55	2 of 6	3 of 18

Extract of 10 entries:

{"CDR-L1": "KSSISYLYESRNKNSVA", "CDR-L2": "NGSTRES", "CDR-L3": "QQYHRLPLS", "mean log10 Kd (nM)": "-0.06", "replicates with signal": "6 of 6", "control signals": "1 of 18"}
{"CDR-L1": "KLEQSQDYESRNKNSVA", "CDR-L2": "NASTRES", "CDR-L3": "QQYHRLPLS", "mean log10 Kd (nM)": "-0.38", "replicates with signal": "6 of 6", "control signals": "0 of 18"}
{"CDR-L1": "KVQQSQLYESRNKNSVA", "CDR-L2": "NASTRED", "CDR-L3": "QQYHRLPLS", "mean log10 Kd (nM)": "-0.46", "replicates with signal": "6 of 6", "control signals": "1 of 18"}
{"CDR-L1": "KISQGVLYESRNKNSVA", "CDR-L2": "GASTRCS", "CDR-L3": "QQYHRLPLS", "mean log10 Kd (nM)": "-0.10", "replicates with signal": "6 of 6", "control signals": "0 of 18"}
{"CDR-L1": "KLHQSWLYGSRNANSVA", "CDR-L2": "NASQREE", "CDR-L3": "QQYHRLPLS", "mean log10 Kd (nM)": "-0.44", "replicates with signal": "6 of 6", "control signals": "2 of 18"}
{"CDR-L1": "KLQQSELYESRNKNSVA", "CDR-L2": "SASTRLS", "CDR-L3": "QQYHRLPLS", "mean log10 Kd (nM)": "0.54", "replicates with signal": "6 of 6", "control signals": "1 of 18"}
{"CDR-L1": "KSSQSVLYESRNKNSVA", "CDR-L2": "DASTRES", "CDR-L3": "QQYHRLPLK", "mean log10 Kd (nM)": "0.44", "replicates with signal": "6 of 6", "control signals": "2 of 18"}
{"CDR-L1": "HITYGMMVVGRHSKSIA", "CDR-L2": "QAETRAK", "CDR-L3": "QQYDRLPLI", "mean log10 Kd (nM)": "1.53", "replicates with signal": "6 of 6", "control signals": "0 of 18"}
{"CDR-L1": "KSSQSVLYESRLKNSVA", "CDR-L2": "WATTRES", "CDR-L3": "QQYHRLPLF", "mean log10 Kd (nM)": "no signal", "replicates with signal": "0 of 6", "control signals": "0 of 18"}
{"CDR-L1": "KVDQEWHYGSRNKNSVA", "CDR-L2": "NASQRES", "CDR-L3": "QQYHRLPLS", "mean log10 Kd (nM)": "0.56", "replicates with signal": "6 of 6", "control signals": "3 of 18"}